Assay: Particle size measurement of Citalopram HBr, Paroxetine HCl and Fluoxetine HCl
Assay type: physicochemical
Conditions: Dist. Base: Volume
Method: Particle size measurements were conducted on Paroxetine HCl.

CNCCC(Oc1ccc(C(F)(F)F)cc1)c1ccccc1.Cl (centres unmarked) [Fluoxetine HCl Provided by Supplier 1]
Particle size, Mode: 18.600 µm
Span: (D 20.0-D 10.0)/D50: Span: (D 20.0-D 10.0)/D50 = 0.158

Reference: patent US20080138411A1, “Modified Release Formulations Of Selective Serotonin Re-Uptake Inhibitors” (priority 2002, published 2008)
